Only some compounds are listed: those with a hit (about 3.7% of all), similar ones and a draw of the others.
Nrf2 ARE act – activates Nrf2 signaling; AID 624171; AREc32 ARE-luciferase reporter (MCF7-derived line), luminescence, 24 h; Potency, µM (highest dose often 46.1 µM), inactives show at the top dose activation, most hits filed as activators; actives 0.31% (n = 410,000); also: potency is read from the fitted curve at half-maximal effect; % of control where 0% means no effect; nearly all actives have a fitted effect of over 65% in size
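Reporter line AREc32 (ARE-Fluc), seeded overnight in OPTI-MEM with 5% FBS; compound pin-transferred, 24 hr at 37 deg C, 5% CO2; luminescent read-out.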
Nrf2 block – blocks Nrf2 signaling | A549 ARE-Fluc reporter, luciferase luminescence, 18-24 h | actives 2.1% (n = 360,000) | Potency, µM (top dose mostly 46 µM), without a hit: at the highest dose activity change, negative = inhibition, most hits filed as inhibitors | AID 504444; also: potency is read from the fitted curve at half-maximal effect; % is scaled to controls: 0 for no effect and ±100 for the full control effect; nearly all actives have a fitted effect of over 60% in size
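Two sequential reads on A549 ARE_Fluc cells exposed to compound for 18-24 h: a CellTiter-Fluor fluorescence read for viability, then a luciferase luminescence read for Nrf2/ARE activity.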
p53 reactivation – re-activators of mutant p53. actives 0.063% (n = 320,000). H1299 p53-A138V BP100-luciferase reporter, luminescence, 24 h. Potency, µM (doses to about 92.2 µM), for inactives: at the highest dose activity change, positive = activation, actives largely listed as activators; also: potency is read from the fitted curve at half-maximal effect; % of control where 0% means no effect; nearly all actives have a fitted effect of over 45% in size
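p53-null H1299 cells stably carrying temperature-sensitive p53-A138V and a BP100-luciferase reporter were pinned with compounds (4-point, 1:5 series) and held 24 hrs at 37 deg C. Luminescence was read 10 min after detection reagent.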
ClpP mod – qHTS Assay for Activators of ClpP; Potency, µM (doses to about 57.5 µM), for inactives: at the top dose activity change, negative = active; AID 651965, 2013; purified B. subtilis ClpP, FRET peptide cleavage, 20 min; actives 1.9% (n = 340,000); ATP-dependent Clp protease proteolytic subunit (Bacillus subtilis (strain 168)), P80244; active = well fitted falling curve with a large enough effect; inconclusive = small, poorly fitted or top-dose-only effect; inactive = no such curve, though single readings can be large or run the other way; also: potency is read from the fitted curve at half-maximal effect; the source files actives as falling curves though it sought activators and does not explain the sign; nearly all actives have a fitted effect of over 65% in size
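FRET quenching reversal measured ClpP activation: 10 microg/mL B. subtilis ClpP at pH 8 with the FRET-FV decapeptide, read at 430 nm after 320 nm excitation. The 20-min minus 0-min signal was scaled between DMSO/no-enzyme wells and ADEP (5.8 microM final).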
miR-21 reporter – raises the signal of a miR-21 reporter | HeLa miR-21 FLuc reporter, luciferase, 48 h | Potency, µM (doses to about 38.3 µM), for the others: at the highest dose reporter change, positive = more light | 340,000 tested, under 10 active | AID 2288; active = well fitted rising curve with a large enough effect; inconclusive = small, poorly fitted or top-dose-only effect; inactive = no such curve, though single readings can be large or run the other way;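 also: % of control where 0% means no effect; miR-21 action dims this reporter so a rising signal means less miR-21 action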
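HeLa miR-21-FLuc reporter line, endogenous miR-21; 2000 cells/well in DMEM/10% FBS; compound titration up to ~40uM final, 48 h, 37 degree Celsius; luciferase detection reagent, 15 min lysis, CCD luminescence.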
A549 tox-1 – kills or reduces viability of A549 cells in Nrf2 counter-screen; Potency, µM (top dose mostly 46 µM), without a hit: at the highest dose activity change, negative = cytotoxicity, hits mostly inhibitors; actives 0.16% (n = 390,000); A549 ARE-Fluc cells, CellTiter-Fluor viability, 18-24 h; AID 504648; also: potency is read from the fitted curve at half-maximal effect; % is scaled to controls: 0 for no effect and ±100 for the full control effect
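A549 ARE-Fluc cells in 5% FBS OPTI-MEM, 5000 cells/well, rested 2 h then exposed to compounds in concentration-response for 18-24 h at 37 °C. Viability by CellTiter-Fluor fluorescence (Ex 405/Em 525) after 30 min; luciferase luminescence (BugLite, 15 min, RT) read afterwards.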
FLuc enzyme inh – blocks purified firefly luciferase in Nrf2 counterscreen | AID 720522 | purified firefly luciferase, luminescence inhibition | shares compounds with Nrf2 block | actives 4% (n = 1,400) | Potency, µM (series often up to 57.5 µM), inactives show top-dose activity change, negative = inhibition, actives largely listed as inhibitors; also: potency is read from the fitted curve at half-maximal effect; % is scaled to controls: 0 for no effect and ±100 for the full control effect; nearly all actives have a fitted effect of over 65% in size
A549 tox-2 – counter-screen for Nrf2 inhibitors: cytotoxicity in A549 ARE cells; shares compounds with Nrf2 block; A549 ARE-Fluc cells, cytotoxicity counterscreen; actives 2% (n = 1,400); Potency, µM (doses to about 46.1 µM), inactives show top-dose activity change, negative = cytotoxicity, usual class: inhibitors;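 also: potency is read from the fitted curve at half-maximal effect; cells exposed to compounds for 18 to 24 hours; % is scaled to controls: 0 for no effect and ±100 for the full control effect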
Nrf2 ARE inh – reduces Nrf2 ARE reporter signal in A549 cells; shares compounds with Nrf2 block; A549 ARE-firefly luciferase reporter, luminescence; Potency, µM (doses to about 46.1 µM), for the others: at the highest dose activity change, negative = inhibition, most hits filed as inhibitors; actives 74% (n = 1,400); AID 720524; also: potency is read from the fitted curve at half-maximal effect; % is scaled to controls: 0 for no effect and ±100 for the full control effect; nearly all actives have a fitted effect of over 65% in size
The depositor's hits bear a star; ? = inconclusive; · = not tested or not shown. Unless noted, calls follow the shape of the dose curve; as a rule, active = well fitted curve in the direction sought with a large enough effect; inconclusive = small, poorly fitted or top-dose-only effect, or another doubt; inactive = no such curve, though single readings can be large; an effect the other way counts as inactive or inconclusive.

Labels used below: A = Nrf2 ARE act; B = Nrf2 block; C = p53 reactivation; D = ClpP mod; E = miR-21 reporter; F = A549 tox-1; G = FLuc enzyme inh; H = A549 tox-2; I = Nrf2 ARE inh
CC1Cc2ccccc2N1c1ncnc(N)c1[N+](=O)[O-] (stereo not given)
  A = -2%; B = 4.6µM*; C = -1%; D = 0%; E = ?; F = -14%; G = 2%; H = -25%; I = 8.2µM*
Cc1oc(-c2ccc(Cl)cc2)nc1CS(=O)CC(=O)NCCCN1CCCC(C)C1 (stereo not given)
  A = 3%; B = 1%; C = 14%; D = -16%; E = -3%; F = 2%; G = ·; H = ·; I = ·
Cc1oc(-c2ccc(Cl)cc2)nc1CS(=O)CC(=O)NCCCN1CCN(Cc2ccccc2)CC1 (stereo not given)
  A = 3%; B = 5.8µM*; C = -10%; D = -14%; E = ?; F = -4%; G = 3%; H = -14%; I = 12µM*
Cc1oc(-c2ccc(Cl)cc2)nc1CN1CCCC(C(=O)N2CCN(C(=O)c3ccco3)CC2)C1 (stereo not given)
  A = 1%; B = 3.3µM*; C = 24%; D = -5%; E = ?; F = 17%; G = 0%; H = -15%; I = 6.5µM*
Cc1oc(-c2ccc(Cl)cc2)nc1CN1CCCC(C(=O)N2CCOCC2)C1 (stereo not given)
  A = 4%; B = ?; C = -4%; D = -4%; E = -2%; F = 0%; G = ·; H = ·; I = ·
CN(CCOc1ccc(Cl)cc1)C(=O)c1cccc(S(=O)(=O)N2CCN(Cc3ccccc3)CC2)c1
  A = 0%; B = 8.2µM*; C = ·; D = 0%; E = ·; F = -10%; G = 0%; H = -29%; I = 9.2µM*
CSc1ccc(CN(C)C(=O)c2cccc(S(=O)(=O)N3CCN(Cc4ccccc4)CC3)c2)cc1
  A = 0%; B = 5.8µM*; C = -4%; D = 0%; E = ·; F = -16%; G = 1%; H = 13%; I = ?
COc1cccc(-c2ncc3ccccc3c2COC(=O)N2CCOCC2)c1
  A = 1%; B = -8%; C = 11%; D = 0%; E = ·; F = -10%; G = ·; H = ·; I = ·
COc1cccc(-c2ncc3ccccc3c2COC(=O)N2CCCCC2)c1
  A = 3%; B = 5.8µM*; C = -12%; D = -7%; E = ·; F = -2%; G = -22%; H = -1%; I = ?
CC1=C(C(=O)NC2CCCc3c2cnn3-c2cccc(C)c2C)OCCO1 (stereo not given)
  A = 0%; B = 7.3µM*; C = -26%; D = -1%; E = 19%; F = -7%; G = 2%; H = -3%; I = 12µM*
Nc1ccc(-c2cc3ccccc3oc2=O)cc1
  A = -2%; B = 1.3µM*; C = ·; D = -2%; E = 29%; F = -1%; G = 8.5µM*; H = -1%; I = 1.5µM*
CCCCCCCn1ccc(=N)cc1
  A = 0%; B = 2.9µM*; C = -8%; D = -1%; E = ?; F = -19%; G = 2%; H = -13%; I = 6.5µM*
CCn1ccc(=N)cc1
  A = 0%; B = ·; C = ?; D = 1%; E = -2%; F = -16%; G = ·; H = ·; I = ·
CCCCCn1ccc(=N)cc1
  A = 0%; B = 0.92µM*; C = 5%; D = -1%; E = 15%; F = ?; G = 4%; H = -12%; I = 1.6µM*
CCCCCCN1CC(O)=C(c2ccccc2)C1=N
  A = 0%; B = ·; C = -2%; D = 9%; E = -8%; F = 3%; G = ·; H = ·; I = ·
CCCCCCCCCn1ccc(=N)cc1
  A = 4%; B = 3.3µM*; C = -9%; D = ?; E = ?; F = ?; G = 3%; H = -24%; I = 8.2µM*
N=c1ccn(Cc2ccc(Cl)cc2)cc1
  A = 0%; B = ·; C = -8%; D = -4%; E = ?; F = ?; G = ·; H = ·; I = ·

Arranged by the number under Nrf2 ARE inh (highest first): 3 of the compounds above.
compound	Nrf2 ARE inh
CCCCCCCCCn1ccc(=N)cc1	8.2µM*
CCCCCCCn1ccc(=N)cc1	6.5µM*
CCCCCn1ccc(=N)cc1	1.6µM*
